Measured values: patent publication US20250042894A1, “PROTEIN TYROSINE PHOSPHATASE INHIBITORS AND METHODS OF USE THEREOF” (Calico Life Sciences LLC, priority 2021, published 2025)

Sequences of proteins named here, by UniProt entry; tags and fusion partners are left off. Residues count along the entry.
UniProt P17706, 1-387 isoform 2: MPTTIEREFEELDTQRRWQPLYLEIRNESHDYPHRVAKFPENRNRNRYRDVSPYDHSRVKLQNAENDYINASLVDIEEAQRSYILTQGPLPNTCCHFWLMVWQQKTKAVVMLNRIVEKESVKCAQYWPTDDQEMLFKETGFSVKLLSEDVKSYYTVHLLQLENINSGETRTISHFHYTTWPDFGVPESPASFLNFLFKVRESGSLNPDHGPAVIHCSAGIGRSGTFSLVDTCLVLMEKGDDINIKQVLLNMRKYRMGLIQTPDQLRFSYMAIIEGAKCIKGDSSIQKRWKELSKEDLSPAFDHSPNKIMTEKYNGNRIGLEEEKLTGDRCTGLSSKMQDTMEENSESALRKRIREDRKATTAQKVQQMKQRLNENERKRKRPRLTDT

Key:
[1] = test system: IFNγ-induced STAT1 phosphorylation (pSTAT1) in B16F10 cells; test: B16F10 Phospho-STAT1 HTRF proximal pharmacodynamic (PD) assay; settings: read-out: pSTAT1 EC50, Table 3, thiochromanes (X = S) and chromane comparators (X = O)
Experimental: Example 45: B16F10 (Murine Melanoma Cells) Phospho-STAT1 HTRF Proximal Pharmacodynamic (PD) Assay
B16F10 cells were grown and maintained in high glucose DMEM (Gibco, Catalog #11965-092, Dun Laoghaire Co Dublin) supplemented with 10% fetal bovine serum (Gibco, Catalog #10082-139, Dun Laoghaire Co Dublin). The cells were pelleted and resuspended in high glucose DMEM without phenol red (Gibco, Catalog #11054-020, Dun Laoghaire Co Dublin), supplemented with 10% fetal bovine serum and plated in a 384 well Corning plate (product #3765, Corning, NY) at 11,000 cells per well in a volume of 20 μL. The cells were dosed with the compounds of interest using an Echo Liquid Handler (Beckman Coulter, Brea, CA) at 50 μM top dose with 3-fold dilutions down to 0.002679 μM for a 10-point dose response. The plate was incubated for 3 hours at 37° C. and subsequently treated with recombinant mouse IFNγ (R&D Systems, Catalog #485-MI, Minneapolis, MN; 100 nM final concentration) for 10 minutes at 37° C. to induce STAT1 phosphorylation followed by 3.3 μM staurosporine treatment for 1 hour at 37° C. to terminate phosphorylation. […] The plate was incubated for 3 hours at room temperature and read on an EnVision® (Perkin Elmer) plate reader with laser excitation at 335 nm and emission at 665 nm. […]

[2] = molecular target: His tagged PTPN2 (TC45) protein (Homo sapiens, UniProt P17706); test: Mobility Shift Assay (MSA) for PTPN2 inhibitors; settings: read-out: PTPN2 MSA IC50; Table 3; thiochromanes (X = S) and chromane comparators (X = O)
Experimental: Example 43: Mobility Shift Assay (MSA) Used to Determine Potency of PTPN2 Inhibitors
Compound activity was determined using in house His tagged PTPN2 (TC45) protein (SEQ ID NO: 1) in an in vitro enzymatic reaction. The enzymatic assay used to determine activity was a mobility shift assay using a LabChip EZ Reader by Caliper Life Sciences. The enzymatic reaction was carried out in assay buffer (50 mM HEPES pH 7.5, 1 mM EGTA, 10 mM EDTA, 0.01% Tween® 20, and 2 mM DTT). The compounds were dispensed on a white 384 well ProxiPlate™ (PerkinElmer Catalog #6008289) plate using the Labcyte Echo at varying concentrations (12 point, 1:3 dilution). The enzyme (at 0.5 nM) was incubated with compound for 10 minutes at room temperature. Thereafter, the substrate (phosphorylated insulin receptor probe sequence: ((OG488)-(NH—CH2—CH2—O—CH2—CH2—O—CH2—CO)-T-R-D-I—(PY)-E-T-D-Y—Y—R—K—K—NH2) (SEQ ID NO: 2) was added at 2 μM to the plates and incubated for another 10 minutes at room temperature. Finally, a quench solution (water and 4-bromo-3-(2-oxo-2-propoxyethoxy)-5-(3-{[1-(phenylmethanesulfonyl)piperidin-4-yl]amino}phenyl)thiophene-2-carboxylic acid) was added to the plates, which were then run on the EZ Reader (excitation 488 nm, emission 530 nm) to measure % conversion (the amount of phosphorylated substrate which was de-phosphorylated by PTPN2). […]

EC50 [1] [nM]	SMILES	IC50 [2] [nM]
> 50000	O=C1CN(c2c(O)cc3c(c2F)C[C@H](NCCCOCC(F)F)CO3)S(=O)(=O)N1	23
–	O=C1CN(c2c(O)cc3c(c2F)C[C@H](NCCCC(F)F)CO3)S(=O)(=O)N1	8
